{"source": "patent US20250381198A1", "about": "(Melt Pharmaceuticals, Inc., priority 2024, published 2025)", "test": "Phase 1 crossover relative bioavailability study: plasma pharmacokinetics of midazolam, 1-hydroxymidazolam, ketamine and norketamine", "details": "Treatment C: midazolam IV 3.5 mg, fasted", "description": "PK analysis was performed using noncompartmental methods in Phoenix WinNonlin® (Version 8.1, Certara, L.P.) in conjunction with the internet-accessible implementation of the Pharsight® Knowledgebase Server™ (PKSO; Version 4.0.4, Certara, L.P). PKSO provides protected and structured storage, audit trails, and version control for study data, analyses, and related files, supporting 21 CFR Part 11 compliance. The analysis was performed in accordance with the Statistical Analysis Plan (Version 1.0, 5 Jan. 2021).\nDuring the PK analysis, concentrations below the limit of quantitation (BLQ) up to the time of the first quantifiable concentration were treated as zero. Embedded (values between 2 quantifiable concentrations) and terminal BLQ concentrations were treated as “missing”. Calculation of the PK characteristics were based on actual elapsed times [h] (relative to time of dose).\nAll PK analyses were performed on the data from the PK Analysis Population. […] The ANOVA model included factors for sequence, subject within sequence, treatment, and period."}
{"compound": "Cc1ncc2n1-c1ccc(Cl)cc1C(c1ccccc1F)=NC2", "note": "[Midazolam, 8-chloro-6-(2-fluorophenyl)-1-methyl-4H-imidazo[1,5-a][1,4]benzodiazepine]", "values": [{"measurement": "Midazolam Tlast, mean", "value": 23.4, "unit": "h"}]}
